Measurements taken from ChEMBL document CHEMBL1151070, “Synthesis and PKC inhibitory activities of balanol analogs with a cyclopentane substructure” (Bioorg Med Chem Lett, 1995).

Biological target: T1, Protein kinase C epsilon type (Homo sapiens, UniProt Q02156)
T1 sequence (Q02156 whole entry): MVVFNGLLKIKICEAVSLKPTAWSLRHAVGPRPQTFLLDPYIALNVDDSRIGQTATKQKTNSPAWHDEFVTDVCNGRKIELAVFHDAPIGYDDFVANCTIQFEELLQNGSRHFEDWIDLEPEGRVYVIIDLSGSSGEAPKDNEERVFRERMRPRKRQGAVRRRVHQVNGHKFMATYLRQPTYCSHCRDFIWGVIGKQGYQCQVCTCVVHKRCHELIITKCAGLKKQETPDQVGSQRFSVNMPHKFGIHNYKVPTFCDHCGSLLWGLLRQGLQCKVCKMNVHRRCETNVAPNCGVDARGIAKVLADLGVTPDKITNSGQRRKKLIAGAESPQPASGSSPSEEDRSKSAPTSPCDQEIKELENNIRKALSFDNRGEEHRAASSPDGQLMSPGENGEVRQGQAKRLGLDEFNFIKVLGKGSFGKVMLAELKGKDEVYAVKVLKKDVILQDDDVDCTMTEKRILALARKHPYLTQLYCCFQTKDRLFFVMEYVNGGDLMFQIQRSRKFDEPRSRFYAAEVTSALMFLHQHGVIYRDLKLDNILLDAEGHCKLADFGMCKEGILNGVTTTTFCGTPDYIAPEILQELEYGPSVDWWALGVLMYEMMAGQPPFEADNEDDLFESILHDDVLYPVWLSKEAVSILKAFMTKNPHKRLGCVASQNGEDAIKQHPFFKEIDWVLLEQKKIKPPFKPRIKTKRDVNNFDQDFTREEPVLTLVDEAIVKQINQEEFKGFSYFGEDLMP
Test: Inhibition of Protein kinase C epsilon

Question: How did the IC50 turn out when `O=C(N[C@@H]1CNCCC[C@H]1OC(=O)c1cc(O)c(C(=O)c2c(O)cccc2C(=O)O)c(O)c1)c1ccc(O)cc1` (racemic) [BALANOL] was run?
Answer: 50 nM
